Assay outcomes deposited in PubChem BioAssay by National Center for Advancing Translational Sciences (NCATS).
Nrf2 activator = Nrf2 pathway activation; 0.31% of 410,000 active; AREc32 ARE-luciferase reporter (MCF7-derived line), luminescence, 24 h; Potency, µM (highest dose often 46.1 µM), without a hit: at the highest dose activation, most hits filed as activators; further: potency means the concentration at half of the fitted maximal effect; % of control where 0% means no effect; nearly all actives have a fitted effect of over 65% in size
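Quantitative high-throughput format: AREc32 reporter cells, 1000 per well, received compound by pin transfer and were incubated 24 hr at 37 deg C, 5% CO2, before Steady-Glo luminescence detection.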
Nrf2 block = inhibitors of Nrf2 signaling; A549 ARE-Fluc reporter, luciferase luminescence, 18-24 h; Potency, µM (series often up to 46 µM), inactives show top-dose activity change, negative = inhibition, most hits filed as inhibitors; 2.1% of 360,000 active; further: potency means the concentration at half of the fitted maximal effect; on the % scale 0 is the no-effect control and ±100 the full control effect; nearly all actives have a fitted effect of over 60% in size
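A549 ARE_Fluc cells (5000/well, 5% FBS OPTI-MEM) pre-incubated 2 h, then treated with compounds 18-24 h at 37C/5% CO2 in concentration-response. CellTiter-Fluor viability read first; BugLite luciferase luminescence after 15 min at room temperature gives Nrf2 activity.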
Mito fusion yeast = mitochondrial division inhibition or fusion activation. 0.23% of 320,000 active. Potency, µM (doses to about 46.1 µM), for inactives: at the highest dose growth rescue (activation), hits mostly activators. S. cerevisiae fusion-defective mutant growth rescue, CellTiterGlo 48 h; further: potency means the concentration at half of the fitted maximal effect; % of control where 0% means no effect; nearly all actives have a fitted effect of over 45% in size
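Yeast fusion mutant, YPEG (non-fermentable carbon), compound, 48 h at 37C non-permissive; CellTiterGlo added, 10 min RT, luminescence read. Rescued growth = division inhibition.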
A549 viability = counter-screen for Nrf2 inhibitors: cytotoxicity in A549 cells; 0.16% of 390,000 active; A549 ARE-Fluc cells, CellTiter-Fluor viability, 18-24 h; Potency, µM (doses to about 46 µM), without a hit: at the top dose activity change, negative = cytotoxicity, actives largely listed as inhibitors; further: potency means the concentration at half of the fitted maximal effect; on the % scale 0 is the no-effect control and ±100 the full control effect
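A549 ARE_Fluc cells in 5% FBS OPTI-MEM were exposed to compounds in concentration-response for 18-24 h at 37 deg C. Viability was read by CellTiter-Fluor fluorescence (Ex 405/Em 525) after 30 min, before the luciferase read.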
miR-21 reporter = miR-21 reporter, rising signal; HeLa miR-21 FLuc reporter, luciferase, 48 h; Potency, µM (top dose mostly 38.3 µM), without a hit: at the top dose reporter change, positive = more light; 340,000 tested, under 10 active; active = well fitted rising curve with a large enough effect; inconclusive = small, poorly fitted or top-dose-only effect; inactive = no such curve, though single readings can be large or run the other way;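 note: % of control where 0% means no effect; miR-21 action dims this reporter so a rising signal means less miR-21 action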
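HeLa cells endogenously expressing miR-21, stably carrying CMV-driven firefly luciferase with a downstream miR-21 binding site, 2000 cells/well. Titrations up to approximately 40 uM, 48 hours; luciferase luminescence read.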
* = called active by the depositor; ? = inconclusive; / = not tested or not shown. Compounds with a hit are over-represented: about 2.3% of the library has one in this group of screens. The call rests on the fitted dose curve; in most records, active means well fitted curve in the direction sought with a large enough effect; inconclusive means small, poorly fitted or top-dose-only effect, or another doubt; inactive means no such curve, though single readings can be large; an effect the other way counts as inactive or inconclusive.

Start of the data: the first 3 records, to show the layout:
Fields: Nrf2 activator | Nrf2 block | Mito fusion yeast | A549 viability | miR-21 reporter
COc1ccc2c(C)c(CC(=O)N3CCN(C(=O)C4COc5ccccc5O4)CC3)c(=O)oc2c1 (stereo not drawn)
→ 0% | 23µM* | -1% | 13% | 8%
COc1ccc(C(=O)N2CCC(c3nc(-c4ccc(S(=O)(=O)N5CCCC5)cc4)no3)CC2)cc1
→ 0% | 21µM* | / | ? | 25%
CCOc1ccc(C(=O)N2CCC(c3nc(-c4ccc(S(=O)(=O)N5CCCC5)cc4)no3)CC2)cc1
→ 0% | 13µM* | / | -12% | ?

This part in full (from the top)
Fields: Nrf2 activator | Nrf2 block | Mito fusion yeast | A549 viability | miR-21 reporter
COc1ccc2c(C)c(CC(=O)N3CCN(C(=O)C4COc5ccccc5O4)CC3)c(=O)oc2c1 (stereo not drawn)
→ 0% | 23µM* | -1% | 13% | 8%
COc1ccc(C(=O)N2CCC(c3nc(-c4ccc(S(=O)(=O)N5CCCC5)cc4)no3)CC2)cc1
→ 0% | 21µM* | / | ? | 25%
CCOc1ccc(C(=O)N2CCC(c3nc(-c4ccc(S(=O)(=O)N5CCCC5)cc4)no3)CC2)cc1
→ 0% | 13µM* | / | -12% | ?
CCc1nn2c(=O)cc(-c3ccncc3)nc2s1
→ / | -29% | / | 5% | /
O=C1CC(c2cccc(Cl)c2)c2cc3c(cc2N1)CCC3 (stereo not drawn)
→ -1% | -28% | 23% | -23% | 22%
O=C1CC(c2cccc([N+](=O)[O-])c2)c2cc3c(cc2N1)CCC3 (stereo not drawn)
→ 0% | 15µM* | -1% | ? | 26%
CCOC(=O)C1=C(CS(=O)(=O)c2ccc(C)cc2)NC(=O)NC1c1ccc(C(C)C)cc1 (stereo not drawn)
→ 0% | 18µM* | / | ? | ?
CCOC(=O)C1=C(CN(C)Cc2ccccc2)NC(=O)NC1c1ccc(OC(C)C)cc1 (stereo not drawn)
→ 1% | 26µM* | / | -13% | 19%
CCOC(=O)C1=C(CN2CCN(c3cc(C)ccc3C)CC2)NC(=O)NC1c1ccc(Cl)cc1 (stereo not drawn)
→ 0% | 21µM* | / | -18% | 30%
COc1cc2c(cc1NC(=O)C(C)Oc1ccc(Cl)cc1Cl)oc1ccccc12 (stereo not drawn)
→ 5% | -9% | / | -1% | 1%
CCC1CN(C(=O)N2CCC(C(=O)NCc3cc(OC)ccc3OC)CC2)c2ccccc2O1 (stereo not drawn)
→ 3% | 21% | / | 7% | -3%
Cc1cc2c(s1)c1cnn(Cc3ccc(Cl)cc3)c(=O)c1n2C
→ / | 3% | / | -6% | /
FC(F)(F)c1ccc(N2CCOCC2)c(Nc2nc3ccccc3n3cnnc23)c1
→ 7% | 21µM* | -10% | 16µM* | 1%
c1ccc(N2CCCCC2)c(Nc2nc3ccccc3n3cnnc23)c1
→ 4% | ? | 20% | 1% | 3%
COc1ccc(-c2noc(CSc3nc4ccccc4[nH]3)n2)cc1OC
→ 1% | 21µM* | / | -11% | 25%
CCn1c(SCc2nc(-c3ccc(OC)c(OC)c3)no2)nnc1-c1cccs1
→ 4% | 21µM* | 0% | -14% | 13%
CCn1c(SCC(=O)NC(C)C)nnc1-c1cccs1
→ -1% | -9% | -3% | -8% | -3%
Cc1ccccc1-c1noc(CSc2nc3ccccc3[nH]2)n1
→ 0% | 18µM* | / | -5% | -1%
CCn1c(SCC(=O)c2cccs2)nnc1-c1cccs1
→ 22µM* | ? | -1% | 0% | -38%
Cc1noc(C)c1S(=O)(=O)Nc1ccc(C(=O)Nc2ccc(Br)cc2)cc1
→ -1% | ? | / | 1% | ?

Additional structures:
Key to letters: A = Nrf2 activator; B = Nrf2 block; C = Mito fusion yeast; D = A549 viability; E = miR-21 reporter
CCc1ccc2c(c1)c(=O)c(C(=O)c1ccccc1)cn2CC(=O)Nc1ccc(C)c(Cl)c1
  A: 0%; B: 11%; C: /; D: 6%; E: -6%

Cc1cc(C)c(C(=O)/C=C/C=C/c2ccccc2)c(=O)[nH]1
  A: ?; B: 0%; C: 27%; D: 1%; E: -17%

Cc1cc(C)c(C(=O)/C=C/c2ccc(C(C)C)cc2)c(=O)[nH]1
  A: -1%; B: 18µM*; C: -11%; D: -19%; E: ?

CCCCCOc1ccc(NC(=O)Cc2csc(C)n2)cc1
  A: 1%; B: ?; C: /; D: -11%; E: -9%

COc1ccccc1NS(=O)(=O)c1cc(NC(=O)Cc2n[nH]c(=O)c3ccccc23)ccc1Cl
  A: 15%; B: 21µM*; C: /; D: -34%; E: /

Cc1ccccc1N(C)C1=N[S+](=O)([O-])c2ccccc21
  A: /; B: -2%; C: /; D: 1%; E: /

CCCN1CNc2c(c(=O)[nH]c(=S)n2CCc2ccccn2)C1
  A: /; B: 5%; C: /; D: 9%; E: /

CC(=O)c1cccc(NC(=O)C(C)OC(=O)c2ccc(S(C)(=O)=O)c([N+](=O)[O-])c2)c1 (stereo not drawn)
  A: /; B: 21%; C: /; D: -4%; E: /

COc1cccc(CN(C)C(=O)c2cc(S(=O)(=O)NCc3ccccc3)ccc2C)c1OC
  A: 0%; B: -9%; C: -1%; D: -3%; E: /
